# Binding of CDR-mutated scFvs to a peptide of the spike HR2 region

Values reported by Li et al. 2023, doi:10.1038/s41467-023-39022-2 (FLAb copy).

Antigen: PDVDLGDISGINAS, a 14-residue peptide of the SARS-CoV-2 spike HR2 region.

Parent: Ab-14, a human scFv built as VH, three GGGGS repeats, VL. Only the CDRs of the heavy chain vary.
VH: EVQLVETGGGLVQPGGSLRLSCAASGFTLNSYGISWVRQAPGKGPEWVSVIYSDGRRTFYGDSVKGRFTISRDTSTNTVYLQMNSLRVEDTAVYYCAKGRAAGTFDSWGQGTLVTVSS
VL: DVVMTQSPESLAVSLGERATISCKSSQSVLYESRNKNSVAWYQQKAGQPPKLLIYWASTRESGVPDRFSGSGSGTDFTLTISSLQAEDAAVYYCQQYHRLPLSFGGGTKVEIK

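The parent was found by panning a naive human phage display library on the peptide. Designed CDR sequences, proposed from the first random library and measured here. Group labels follow the data file (Ctrl: baseline library sampled from a position-specific scoring matrix, with some repeated check sequences; Rand: our label for a block that the file lists under HC and that is probably the random mutants of the ten best first-round binders; En: ensemble of fine-tuned language models; GP: Gaussian process model; GPLM: also part of the Gaussian process libraries; HC: hill climbing; Gen: genetic algorithm; Gibbs: Gibbs sampling; a sequence that several methods proposed may carry one label only). Affinity was read by AlphaSeq, a pooled yeast mating assay with surface-displayed partners. Binding brings cells together so that they mate, and sequencing counts the barcode pairs among the diploids. A regression on co-assayed BCL2-family reference pairs converts the normalised counts of each replicate to an apparent Kd. Each pool was mated in six replicate cultures.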

The parent's heavy chain CDRs are GFTLNSYGIS, VIYSDGRRTFYGDSVK, GRAAGTFDS; each variant's own CDRs replace them letter for letter.
Affinities are written as log10 Kd with Kd in nM; a lower number is a better binder.
Averages over replicates are reported, and they cover detected replicates only.
Where no diploid with the target was found in any replicate, the entry reads "nd": below detection, most likely a poor binder, though not proof of it.
As a blank, each scFv also met three strains without target: over all heavy chain designs, 1% of these pairings were detected, typically at 2.08 and seldom below 0.84.
The authors averaged sequences with at least three values out of six and counted those with two or fewer as poor binders.
The range of this assay differs from that of the first round, and the authors advise against merging the two.

nd (0 of 6 replicates) for GFTLNSYGIS | VIYSDGRRTFYADSVK | QRAAGTFDS [Ctrl].
-0.58 (6 of 6 replicates) for GFDLNEYGIS | VIYADGRRTFYTDSVK | GNTAGTFDV [En_HC].
-0.56 (6 of 6 replicates) for GFDLDEYGIS | VIYADGMRTAYADSVK | GDNAGTFDV [En_Gen].
0.04 (6 of 6 replicates) for GFELNQYGIS | VIYSDGMRTFYSDSVK | GRAAGTFDS [GP_HC].
1.93 (5 of 6 replicates) for MFDLNSYGIS | VIYSDGRRTFYGDSVK | GRQAGTFDS [GP_Gen].
1.14 (4 of 6 replicates) for GFELNSYGIS | VIYSDGRRTFYGDSVK | GEAAGTFDS [GPLM_Gen].
-0.67 (6 of 6 replicates) for GFDLDEYGIS | VIYADGRRTFYIDSVK | GETAGTFDT [En_HC].
0.16 (6 of 6 replicates) for GFDLNEYGIS | VIYADGIRTAYSDSVK | GNVAGTFDL [En_Gen].
1.04 (6 of 6 replicates) for GFELNSYGIS | VIYSDGRRTFYRDSVK | GRTAGTFDS [GPLM_Gibbs].
1.23 (1 of 6 replicates) for GFDLNEYGIS | VIYADGRRTFYADSVK | GQEAGTFDI [En_HC].
0.78 (6 of 6 replicates) for GFELNSYGIS | VIYSDGRRTFYIDSVK | GKQAGTFDS [GP_Gen].
-0.32 (6 of 6 replicates) for GFDLNEYGIS | VIYADGKRTAYADSVK | GNLAGTFDV [En_Gen].
-0.38 (6 of 6 replicates) for GFDLNEYGIS | VIYADGLRTAYADDVK | GNVAGTFDV [En_Gen].
nd (0 of 6 replicates) for KFTLNSYGIS | VIYSDGRRTFYGDSVK | GRSAGTFDS [Ctrl].
-0.49 (6 of 6 replicates) for GFDLDEYGIS | VIYADGQRTAYADSVK | GKNAGTFDV [En_Gen].
-0.28 (6 of 6 replicates) for GFDLNEYGIS | VIYADGMRTHYTDSVK | GNEAGTFDE [En_HC].
nd (0 of 6 replicates) for GFDIEDYGIS | VIYADGKRSSYSNSFK | GLMSGNIMV [En_Gibbs].
-0.79 (6 of 6 replicates) for GFDLDEYGIS | VIYADGKRTAYADSVK | GEVAGTFDM [En_Gen].
1.47 (5 of 6 replicates) for GFTLNEYGIS | VIYSDGRRTFYGDSVK | GRMAGTFDG [GP_HC].
nd (0 of 6 replicates) for GFTLNSYGIS | VIYSDGRRTFYTDSVK | GEQAGTFDS [GP_HC].
2.12 (3 of 6 replicates) for GFDLNEYGIS | VIYADGLRTSYDDSVK | GNLAGTFDQ [En_HC].
2.19 (1 of 6 replicates) for GFKLNSYGIS | VIYADGRRTFYGDSVK | GRAAGTNDS [GP_HC].
0.64 (6 of 6 replicates) for GFDLNSYGIS | VIYSDGRRTFYCDSVK | GRTAGTFDS [GPLM_Gen].
0.22 (6 of 6 replicates) for GFELNSYGIS | VIYSDGRRTFYTDSVK | GRVAGTFDS [GPLM_HC].
-0.31 (6 of 6 replicates) for GFDLEEYGIS | VIYADGVRTAYADSVK | GNVAGTFDL [En_Gen].
-0.72 (6 of 6 replicates) for GFNLNEYGIS | VIYADGRRTFYADSVK | GQVAGTFDV [En_HC].
nd (0 of 6 replicates) for GFTLNEYHIA | VIYSDGRRTFYTDSVK | GRFAGTFDS [Rand].
nd (0 of 6 replicates) for GFTLNSYGIS | VIYSDGHRTFYGDSVK | GTAAGTFDS [Ctrl].
0.70 (6 of 6 replicates) for GFTLNSYGIS | VIYSDGRRTFYSDSVK | GKTAGTFDA [GP_Gen].
-0.59 (6 of 6 replicates) for GFDLDEYGIS | VIYADGRRQAYADSVK | GENAGTFDV [En_Gen].
nd (0 of 6 replicates) for GFTLNEYGIS | VIYSDGRRTFYGDSVK | GSAAGRFDS [Ctrl].
-0.35 (6 of 6 replicates) for GFDLESYGIS | VIYADGRRTFYSDSVK | GGNAGTFDI [En_HC].
nd (0 of 6 replicates) for GFTLNSYGIS | VIYSDGRRTFYGDTVK | GRAAGTFDS [Ctrl].
nd (0 of 6 replicates) for GFSLNEYGIS | VIYADGTRKSYADNVK | GYQHSVVSL [En_Gibbs].
-0.27 (6 of 6 replicates) for GFDLNEYGIS | VIYADGRRTAYADDVK | GSNAGTFDI [En_Gen].
0.81 (6 of 6 replicates) for GFTLESYGIS | VIYSDGRRTFYADSVK | GRAAGTFDA [GPLM_Gen].
0.38 (6 of 6 replicates) for GFDLNSYGIS | VIYSDGRRTFYMDSVK | GQLAGTFDS [GP_HC].
nd (0 of 6 replicates) for GFTLNSYGIS | VIYSDGKRTFYQDSFK | GRLAGTFDS [Ctrl].
-0.91 (6 of 6 replicates) for GFDLNEYGIS | VIYADGQRTAYADSVK | GKAAGTFDV [En_HC].

The 4 strongest on average among those seen in every replicate, once more:

{"CDR-H1": "GFDLNEYGIS", "CDR-H2": "VIYADGQRTAYADSVK", "CDR-H3": "GKAAGTFDV", "group": "En_HC", "mean log10 Kd (nM)": "-0.91", "replicates with signal": "6/6"}
{"CDR-H1": "GFDLDEYGIS", "CDR-H2": "VIYADGKRTAYADSVK", "CDR-H3": "GEVAGTFDM", "group": "En_Gen", "mean log10 Kd (nM)": "-0.79", "replicates with signal": "6/6"}
{"CDR-H1": "GFNLNEYGIS", "CDR-H2": "VIYADGRRTFYADSVK", "CDR-H3": "GQVAGTFDV", "group": "En_HC", "mean log10 Kd (nM)": "-0.72", "replicates with signal": "6/6"}
{"CDR-H1": "GFDLDEYGIS", "CDR-H2": "VIYADGRRTFYIDSVK", "CDR-H3": "GETAGTFDT", "group": "En_HC", "mean log10 Kd (nM)": "-0.67", "replicates with signal": "6/6"}